Settings in all cases: filed as activator
Assay [1] addresses T1, NAD-dependent protein deacylase sirtuin-5, mitochondrial (Homo sapiens, UniProt Q9NXA8). Description: Activation of SIRT5 (unknown origin) assessed as fold increase in deacetylase activity at 200 uM relative to control.
Assay [2] deals with T1, NAD-dependent protein deacylase sirtuin-5, mitochondrial. Description: Activation of SIRT5 (unknown origin) assessed as fold increase in deacetylase activity at 10 uM relative to control.
Assay [3] shares this target. Description: Activation of SIRT5 (unknown origin) assessed as fold increase in deacetylase activity at 50 uM relative to control.

The chains behind the UniProt entries cited, without tags or fusion partners. Where a name states a change or a piece, a line headed by the entry shows the natural chain unless it says otherwise.
UniProt Q9NXA8: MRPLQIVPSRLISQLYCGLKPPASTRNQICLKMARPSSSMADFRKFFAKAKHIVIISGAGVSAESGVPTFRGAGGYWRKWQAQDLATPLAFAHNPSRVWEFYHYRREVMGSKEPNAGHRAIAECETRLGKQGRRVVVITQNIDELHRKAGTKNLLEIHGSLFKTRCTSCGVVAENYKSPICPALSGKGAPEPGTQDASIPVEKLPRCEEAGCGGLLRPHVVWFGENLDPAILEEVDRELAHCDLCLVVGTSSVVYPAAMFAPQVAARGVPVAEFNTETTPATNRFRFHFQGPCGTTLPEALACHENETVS

For the molecule `CCOC(=O)C1=CN(C(=O)c2ccccc2)C=C(C(=O)OCC)C1c1cccc(OC)c1`, the figures for the fold change (FC) in assay [1], in assay [2] and in assay [3] were 4, 1.5 and 3, respectively.

The record behind these values is ChEMBL document CHEMBL5137064, “Therapeutic Potential and Activity Modulation of the Protein Lysine Deacylase Sirtuin 5” (J Med Chem, 2022).
